The record followed here is patent publication US20250027072A1, “METHODS AND COMPOSITIONS RELATED TO ENGINEERED CANNABINOID RECEPTORS” (priority 2021, published 2025).

Chains of the proteins cited; added tags and fusions are not shown.
UniProt P34972, whole entry: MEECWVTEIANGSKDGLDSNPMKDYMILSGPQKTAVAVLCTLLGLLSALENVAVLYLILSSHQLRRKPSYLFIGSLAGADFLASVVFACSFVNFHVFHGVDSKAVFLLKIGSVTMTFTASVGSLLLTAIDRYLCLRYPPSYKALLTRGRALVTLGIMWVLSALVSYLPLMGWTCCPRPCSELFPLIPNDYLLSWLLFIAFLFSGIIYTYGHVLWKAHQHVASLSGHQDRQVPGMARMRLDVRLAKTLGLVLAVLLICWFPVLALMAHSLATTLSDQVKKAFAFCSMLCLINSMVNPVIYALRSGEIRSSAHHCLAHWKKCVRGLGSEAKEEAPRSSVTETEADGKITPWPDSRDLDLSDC

The target of this test is human cannabinoid receptor type II (CB2R) (Homo sapiens, UniProt P34972).

Usually EC50 stands for the midpoint of the concentration-response curve. As to `CC(C)(C)C(NC(=O)c1nn(Cc2ccccc2)c2ccccc12)C(N)=O` (stereo not drawn), the “signaling at CB2R in synthetic cannabinoid screen” value (compounds at 1 μM) was “strong CB2R agonist”. Also, the “preference at CB2R of ADB-BINACA over AB-PINACA” value (from EC50 values) is “roughly 100 times”. Also, the EC50 (read-out: EC50 at CB2R, dose response, MFα-CB2R, ST03 sterol strain, pH 5.8) was 1.15 nM.
